Assay [1] has as its target T1, Nociceptin receptor (Homo sapiens, UniProt P41146). Description: Agonist activity at human recombinant NOP receptor expressed in CHO-K1 cells assessed as stimulation of [35S]GTPgammaS binding by scintillation proximity assay.
The target of assay [2] is T2, Mu-type opioid receptor (Homo sapiens, UniProt P35372). Description: Displacement of [3H]naloxone from human MOP receptor expressed in CHO-K1 cells by scintillation proximity assay.
Assay [3] deals with T2, Mu-type opioid receptor. Description: Agonist activity at human recombinant MOP receptor expressed in CHO-K1 cells assessed as stimulation of [35S]GTPgammaS binding by scintillation proximity assay.
In assay [4] the target is T1, Nociceptin receptor. Description: Displacement of [3H]nociceptin from human NOP receptor expressed in CHO-K1 cells by scintillation proximity assay. (In general: In a radioligand displacement assay an active substance lowers the binding of a labelled ligand.)
In assay [5] the test system is Mus musculus. Description: Antinociceptive activity in orally dosed NMRI mouse assessed as increase in latency for tail withdrawal from radiant heat source by tail flick test. Particulars: strain NMRI.
Assay [6] concerns Mus musculus. Description: Antinociceptive activity in orally dosed NMRI mouse assessed as time duration showing >20% maximum possible antinociceptive efficacy by tail flick test. Conditions: strain NMRI. In general terms: Hot-plate and tail-flick tests time the reaction to a heat stimulus.
For assay [7], the system named is Mus musculus. Description: Antinociceptive activity in iv dosed NMRI mouse assessed as increase in latency for tail withdrawal from radiant heat source by tail flick test. Conditions: strain NMRI.
The test system of assay [8] is Mus musculus. Description: Antinociceptive activity in iv dosed NMRI mouse assessed as time duration showing >20% maximum possible antinociceptive efficacy by tail flick test. Conditions: strain NMRI.

Protein sequences, listed by entry. Tags and fused reporters are not part of them.
UniProt P41146, whole entry: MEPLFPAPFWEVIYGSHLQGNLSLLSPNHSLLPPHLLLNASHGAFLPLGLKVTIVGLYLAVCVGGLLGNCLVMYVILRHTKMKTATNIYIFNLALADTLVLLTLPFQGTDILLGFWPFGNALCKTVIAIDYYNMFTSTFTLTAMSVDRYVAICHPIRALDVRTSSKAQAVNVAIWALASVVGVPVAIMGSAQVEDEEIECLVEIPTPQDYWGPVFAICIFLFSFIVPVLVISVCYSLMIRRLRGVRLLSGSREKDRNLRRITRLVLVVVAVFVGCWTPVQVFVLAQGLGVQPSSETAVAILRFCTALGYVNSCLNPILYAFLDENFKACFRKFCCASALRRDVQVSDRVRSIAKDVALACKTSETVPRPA
UniProt P35372, whole entry: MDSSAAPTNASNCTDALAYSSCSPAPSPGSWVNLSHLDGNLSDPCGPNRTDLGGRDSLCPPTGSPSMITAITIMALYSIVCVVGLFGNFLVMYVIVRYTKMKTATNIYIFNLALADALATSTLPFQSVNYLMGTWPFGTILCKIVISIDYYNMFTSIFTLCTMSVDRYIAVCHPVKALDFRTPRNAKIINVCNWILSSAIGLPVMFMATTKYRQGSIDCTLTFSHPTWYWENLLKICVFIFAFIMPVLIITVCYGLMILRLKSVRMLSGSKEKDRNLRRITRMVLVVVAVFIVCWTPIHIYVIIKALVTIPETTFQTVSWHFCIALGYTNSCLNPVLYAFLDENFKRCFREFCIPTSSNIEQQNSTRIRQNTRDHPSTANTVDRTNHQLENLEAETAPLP

These results are taken from ChEMBL document CHEMBL3352090, “Discovery of a Potent Analgesic NOP and Opioid Receptor Agonist: Cebranopadol” (2014).

Structures are written as SMILES. pEC50, pKi: −log10 of the molar value.

As for `CN(C)[C@]1(c2ccccc2)CC[C@]2(CC1)NCCc1c3ccccc3[nH]c12`, the negative logarithm of the EC50 (pEC50) (commonly −log10 of the EC50, conventionally taken in molar units) was 8.89 at Nociceptin receptor [1] and 9.70 at Mu-type opioid receptor [3]. Moreover, the negative logarithm of the Ki (pKi) – broadly, −log10 of the Ki, conventionally taken in molar units – at Mu-type opioid receptor [2] is 9.41; on Nociceptin receptor [4], 9.72.
`CN[C@]1(c2ccccc2)CC[C@]2(CC1)OCCc1c3cc(F)ccc3[nH]c12.O=C(O)CC(O)(CC(=O)O)C(=O)O`: the ED50 (as a rule, the dose that gives a 50% effect, or the effect in half of the subjects) is 1.43 µmol/kg with Mus musculus [5] and 0.434 µmol/kg with Mus musculus [7]. The MPE was more than 95% with Mus musculus [5] and 100% with Mus musculus [7]. Moreover, the Time was more than 600 min with Mus musculus [6] and 300 min in the assay with Mus musculus [8].
For the compound `CN[C@]1(c2ccccc2)CC[C@]2(CC1)OCCc1c3cc(F)ccc3[nH]c12`, the pEC50 on Nociceptin receptor [1] is 7.22; at Mu-type opioid receptor [3] it was 8.59. In addition, the pKi on Mu-type opioid receptor [2] is 8.70; on Nociceptin receptor [4], 7.96.
Consider `CN(C)[C@]1(c2ccccc2)CC[C@]2(CC1)OCCc1c3cc(O)ccc3[nH]c12`, for which the pEC50 was 6.92 on Nociceptin receptor [1] and 8.92 at Mu-type opioid receptor [3]. Moreover, the values for the negative logarithm of the Ki (pKi) on Mu-type opioid receptor [2] and at Nociceptin receptor [4] were 9.40 and 9.00, respectively.
Take `CN(C)[C@]1(c2ccccc2)CC[C@@]2(CC1)c1[nH]c3ccccc3c1CCN2C`: the pKi on Mu-type opioid receptor [2] was 9.62; at Nociceptin receptor [4] it was 9.26.
For `CN[C@]1(c2ccccc2)CC[C@]2(CC1)OCCc1c3ccccc3[nH]c12`, in that order: 9.44 and 8.96.
`CN(C)[C@]1(c2ccccc2)CC[C@]2(CC1)OCCc1c3cc(O)ccc3[nH]c12.O=C(O)CC(O)(CC(=O)O)C(=O)O`: in the assay on Mus musculus [5], the ED50 was determined as 3.06 µmol/kg and the MPE was determined as 100%. In addition, in the assay with Mus musculus [7], the 50% effective dose (ED50) stood at 0.0222 µmol/kg and the MPE was more than 95%.
